Measurements as given in BindingDB's records for patent US8912213 (Purdue Research Foundation, 2014).

Amino acid sequences for entries named in this document (tags omitted).
UniProt Q9NUW8, whole entry: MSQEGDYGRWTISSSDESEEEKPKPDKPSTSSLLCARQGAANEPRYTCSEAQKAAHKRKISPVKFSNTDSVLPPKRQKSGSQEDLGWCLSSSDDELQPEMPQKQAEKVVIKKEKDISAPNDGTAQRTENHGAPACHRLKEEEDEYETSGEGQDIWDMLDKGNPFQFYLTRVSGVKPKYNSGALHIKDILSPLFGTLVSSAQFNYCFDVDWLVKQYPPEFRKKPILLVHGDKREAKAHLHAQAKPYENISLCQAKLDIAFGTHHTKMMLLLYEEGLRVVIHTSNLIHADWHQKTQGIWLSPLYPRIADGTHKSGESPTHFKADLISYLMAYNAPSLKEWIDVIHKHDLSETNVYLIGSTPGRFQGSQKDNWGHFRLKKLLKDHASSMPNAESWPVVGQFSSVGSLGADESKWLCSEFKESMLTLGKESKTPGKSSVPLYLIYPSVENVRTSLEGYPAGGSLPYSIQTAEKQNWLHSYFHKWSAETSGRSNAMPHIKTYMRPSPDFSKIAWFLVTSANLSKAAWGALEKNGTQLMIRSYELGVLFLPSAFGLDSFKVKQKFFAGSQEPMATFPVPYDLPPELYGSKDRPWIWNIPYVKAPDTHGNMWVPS

Biological target: Tyrosyl-DNA phosphodiesterase 1 (Homo sapiens, UniProt Q9NUW8)
Conditions: pH 7.5

| IC50 [µM] | SMILES |
| --- | --- |
| 45 | O=C1c2ccccc2-c2c1c1ccccc1c(=O)n2CCCCCCO |
| 18 | O=C1c2ccccc2-c2c1c1ccccc1c(=O)n2CCCCCCCO |
